Data set [1] has as its target Lys29-linked diubiquitin, P0CG48.
For data set [2], the target named is Lys6-linked diubiquitin, P0CG48.
Data set [3] deals with Lys63-linked diubiquitin (enzymatically assembled), P0CG48.

The chains behind the UniProt entries cited, without tags or fusion partners.
Lys29-linked diubiquitin, P0CG48, UniProt P0CG48, whole entry, looked up: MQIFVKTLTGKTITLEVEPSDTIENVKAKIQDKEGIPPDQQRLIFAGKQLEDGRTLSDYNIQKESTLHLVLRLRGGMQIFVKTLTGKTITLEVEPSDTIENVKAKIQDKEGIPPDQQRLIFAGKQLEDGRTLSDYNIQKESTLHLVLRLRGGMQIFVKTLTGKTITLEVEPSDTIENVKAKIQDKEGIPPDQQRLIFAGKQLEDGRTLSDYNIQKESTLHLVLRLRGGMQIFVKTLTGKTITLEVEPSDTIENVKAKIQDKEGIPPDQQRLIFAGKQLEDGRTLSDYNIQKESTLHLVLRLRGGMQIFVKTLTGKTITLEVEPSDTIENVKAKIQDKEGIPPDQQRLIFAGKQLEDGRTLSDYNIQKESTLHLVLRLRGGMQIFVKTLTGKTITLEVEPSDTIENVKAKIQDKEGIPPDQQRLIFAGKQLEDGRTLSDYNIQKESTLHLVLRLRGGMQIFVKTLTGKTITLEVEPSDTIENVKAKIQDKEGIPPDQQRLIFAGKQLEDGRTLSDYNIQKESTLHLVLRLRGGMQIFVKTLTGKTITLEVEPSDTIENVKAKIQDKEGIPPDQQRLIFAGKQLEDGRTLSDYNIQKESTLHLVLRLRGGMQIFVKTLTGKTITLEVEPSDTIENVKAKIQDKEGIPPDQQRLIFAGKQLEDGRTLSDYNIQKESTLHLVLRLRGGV

B1: USP2 (protein)
chain: NSKSAQGLAGLRNLGNTCFMNSILQCLSNTRELRDYCLQRLYMRDLHHGSNAHTALVEEFAKLIQTIWTSSPNDVVSPSEFKTQIQRYAPRFVGYNQQDAQEFLRFLLDGLHNEVNRVTLRPKSNPENLDHLPDDEKGRQMWRKYLEREDSRIGDLFVGQLKSSLTCTDCGYCSTVFDPFWDLSLPIAKRGYPEVTLMDCMRLFTKEDVLDGDEKPTCCRCRGRKRCIKKFSIQRFPKILVLHLKRFSESRIRTSKLTTFVNFPLRDLDLREFASENTNHAVYNLYAVSNHSGTTMGGHYTAYCRSPGTGEWHTFNDSSVTPMSSSQVRTSDAYLLFYELASPPSRM
As for B1, the “cleavage in in vitro deubiquitinase assay (SDS-PAGE, silver stain)” value in data set [1] was “cleaved Lys6- and Lys63-linked diubiquitin more rapidly than Lys29-linked diubiquitin”; in data set [2], “cleaved Lys6- and Lys63-linked diubiquitin more rapidly than Lys29-linked diubiquitin”; in data set [3] it was “cleaved Lys6- and Lys63-linked diubiquitin more rapidly than Lys29-linked diubiquitin”.
